Source: PubChem BioAssay AID574 (The Scripps Research Institute Molecular Screening Center, 2007)
The entries are a selection whose mix differs from that of the whole data set. The source made the active and inactive calls.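 How the source made its calls: active means activation above a set limit, the screen-wide mean activation plus 3 SD (cut at about 8.5% in these data); inactive means the rest.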

Chains of the proteins cited; added tags and fusions are not shown. Lines headed by an entry give the natural chain unless they say otherwise; changes in a name come on top.
UniProt P28566: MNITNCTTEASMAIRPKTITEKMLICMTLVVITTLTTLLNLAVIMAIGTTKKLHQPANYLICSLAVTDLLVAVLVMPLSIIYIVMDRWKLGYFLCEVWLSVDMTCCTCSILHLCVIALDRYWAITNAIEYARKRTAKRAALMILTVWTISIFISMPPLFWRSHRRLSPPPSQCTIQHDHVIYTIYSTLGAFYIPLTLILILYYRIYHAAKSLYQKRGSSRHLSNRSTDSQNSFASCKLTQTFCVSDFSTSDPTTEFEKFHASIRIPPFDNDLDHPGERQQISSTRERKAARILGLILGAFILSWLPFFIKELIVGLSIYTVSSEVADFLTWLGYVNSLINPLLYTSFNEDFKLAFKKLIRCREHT

These compounds were tested against 5-hydroxytryptamine receptor 1E (Homo sapiens) (UniProt P28566) (assay: activation of human serotonin 5HT1E receptor – cell-based, HTS, primary screen (AID 574;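 further: 100% = positive control agonist at 1 µM giving full maximal response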)). Settings: CHO 5-HT1E Ga15 NFAT-bla reporter, FRET; at 6 µM; stronger effect = higher value; 0% DMSO wells, 100% control agonist wells.

**Q.** `CCOP1(=S)c2c(C)nn(CCC#N)c2N=C(c2ccc(F)cc2)N1C` (stereo not given) was tested. Which activation did it give?
**A.** Its activation is inactive: -0.1%.

**Q.** How did the activation turn out when `O=P(Nc1nccs1)(c1ccccc1)c1nc2ccccc2s1` (stereo not given) was run?
**A.** Its activation is inactive: 0.1%.

**Q.** `CCOP1(=S)c2c(C)nn(CCC#N)c2N=C(c2ccccc2F)N1C` (stereo not given) was tested. Which activation did it give?
**A.** Its activation is inactive: 0.5%.

**Q.** How did the activation turn out when `Cc1cccc(OCC(=O)OC2CN3CCC2CC3)c1` (stereo not given) was run?
**A.** The activation was inactive: -0.1%.

**Q.** Which activation does the source give for `O=P1(Nc2ccccn2)COc2ccccc2OC1` here?
**A.** The activation was inactive: 0.6%.

**Q.** How did the activation turn out when `Clc1n[nH]nc1-c1nn[nH][15n]1` was run?
**A.** Its activation is inactive: -0.6%.

**Q.** For `O=P1(Nc2ncccn2)COc2ccccc2OC1`, which activation is on record?
**A.** The activation was inactive: 0.1%.

**Q.** Which activation does the source give for `O=P1(Nc2ccc(Br)cn2)COc2ccccc2OC1` here?
**A.** Its activation is inactive: 0.8%.

**Q.** How did the activation turn out when `Cc1ccc(OCC(=O)OC2CN3CCC2CC3)cc1` (stereo not given) was run?
**A.** Its activation is inactive: 0.2%.

**Q.** With `Cc1nn(-c2ccccc2)c2c1P(=O)(N1CCOCC1)N(C)C(c1ccccc1)=N2` (stereo not given) as the compound, how does the activation read?
**A.** Its activation is inactive: 5.5%.

**Q.** With `COP1(=S)c2c(C)nn(CCC#N)c2N=C(c2ccc(F)cc2)N1C` (stereo not given) as the compound, how does the activation read?
**A.** Its activation is inactive: -0.1%.

**Q.** How did the activation turn out when `O=C(COc1ccccc1)OC1CN2CCC1CC2` (stereo not given) was run?
**A.** The activation was inactive: -2.4%.

**Q.** `O=C(OC1CN2CCC1CC2)C12CC3CC(CC(C3)C1)C2` (stereo not given) was tested. Which activation did it give?
**A.** Its activation is inactive: -0.8%.

**Q.** For `Cc1c2non([O-])c-2c(C)[n+](=O)[n+]1[O-]`, which activation is on record?
**A.** Its activation is inactive: -0.9%.

**Q.** Which activation does the source give for `CCc1nc2c(n1)c1c(non1O)c1c2no[n+]1[O-]` here?
**A.** The activation was inactive: -1.2%.

**Q.** With `O=C(OC1CN2CCC1CC2)c1cccc(Cl)c1` (stereo not given) as the compound, how does the activation read?
**A.** The activation was inactive: 1.7%.

**Q.** With `O=P(Nc1nccs1)(c1ccccc1)c1ccccc1` as the compound, how does the activation read?
**A.** The activation was inactive: -0.9%.

**Q.** How did the activation turn out when `c1nnnn1CCn1cnnn1` was run?
**A.** Its activation is inactive: -0.2%.

**Q.** How did the activation turn out when `O=P1(Nc2nc3ccc(Cl)cc3s2)COc2ccccc2O1` (stereo not given) was run?
**A.** Its activation is inactive: -0.3%.

**Q.** How did the activation turn out when `COC(=O)c1cc2c(s1)N=C(c1ccccc1)N(C)P2(=O)N1CCOCC1` (stereo not given) was run?
**A.** The activation was inactive: 0.2%.
